From patent US20130045162A1, “DELIVERY SYSTEM FOR SPECIFICALLY TARGETING CANCER CELLS AND METHOD OF USE THEREOF” (MOREHOUSE SCHOOL OF MEDICINE, priority 2011, published 2013)

Conditions: 10 mg/kg/week

O=C1[O][Pt]2([NH][C@@H]3CCCC[C@H]3[NH]2)[O]C1=O [oxaliplatin]
liver and kidney toxicities (elevated AST & ALT, hypocalcemia and hypoglycemia): significant liver and kidney toxicities
